Results from ChEMBL document CHEMBL5715957.

Tests used:
Homo sapiens [1] = species: Homo sapiens; test: Selectivity ratio of Ki for human DRD4 to Ki for DRD4 F2.61V / L3.28F mutant (unknown origin)
Homo sapiens [2] = species: Homo sapiens; test: Selectivity ratio of Ki for human DRD4 to Ki for DRD2 (unknown origin)
Homo sapiens [3] = species: Homo sapiens; test: Selectivity ratio of Ki for human DRD4 to Ki for DRD3 (unknown origin)

Measured: Ratio Ki

O=c1cc(CNCCCOc2cccnc2)[nH]c2ccc(F)cc12
> 3300: Homo sapiens [1] | Homo sapiens [2] | Homo sapiens [3]

Cc1ccc2nc(CNCCCOc3ccccc3)cc(O)c2c1
> 3300: Homo sapiens [1] | Homo sapiens [2] | Homo sapiens [3]
